Measured values published in patent publication US11584748B2, “Spirocyclic compounds” (priority 2018, dated 2023).

Chains of the proteins cited; added tags and fusions are not shown. Lines headed by an entry give the natural chain unless they say otherwise; changes in a name come on top.
UniProt Q96SW2: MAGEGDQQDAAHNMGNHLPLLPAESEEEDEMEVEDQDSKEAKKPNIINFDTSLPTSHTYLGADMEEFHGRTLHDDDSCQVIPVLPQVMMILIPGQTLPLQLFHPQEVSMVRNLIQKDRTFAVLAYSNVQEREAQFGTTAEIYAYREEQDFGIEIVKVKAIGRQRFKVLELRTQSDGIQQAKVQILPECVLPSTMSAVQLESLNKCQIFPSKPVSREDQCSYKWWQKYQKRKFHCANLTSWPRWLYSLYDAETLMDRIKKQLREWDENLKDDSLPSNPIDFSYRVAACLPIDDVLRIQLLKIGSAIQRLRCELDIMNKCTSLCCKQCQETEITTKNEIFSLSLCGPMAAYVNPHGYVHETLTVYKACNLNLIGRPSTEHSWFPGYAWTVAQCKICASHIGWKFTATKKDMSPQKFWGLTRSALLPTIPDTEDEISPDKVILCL

Target: hCereblon(M1-L442)_hDDB1(M1-H1140) (Homo sapiens (Human), UniProt Q96SW2)
Test: Fluorescence direct binding (tryptophan fluorescence titration)
Settings: 20° C., excitation 280 nm, emission 340 nm, 50 mM Hepes 7.4 200 mM NaCl; read-out: Fluorescence h-Cereblon_DDB1 Mean Kd_EQ

| Substance | Kd [nM] |
| --- | --- |
| 2-(4-nitrophenyl)- 2,7-diazaspiro[4.5] decane-6,8-dione [Example 10] | 1 |
| 2-(4-nitrophenyl)- 2,7-diazaspiro[4.5] decane-6,8-dione [Example 11] | 5 |
